Measured values taken from article PMC3118939 (Chemical research in toxicology, 2011).

What was measured:
rat hepatocytes = settings: dose 10 μM; cited from earlier work
human hepatocytes = assay: 4-ABP- and HAA-DNA adduct formation in freshly cultured human hepatocytes; settings: human versus rat hepatocytes; 10 μM

Structure (SMILES): Nc1ccc(-c2ccccc2)cc1 [4-ABP, 4-aminobiphenyl]
- dose converted into N-oxidation products (rat hepatocytes): up to 23%
- adduct level in human hepatocytes relative to rat hepatocytes (human hepatocytes): similar
